US8637521B2, “Substituted piperazin-2,5-diones and their use as multifunctional bioactive compounds” (priority 2006, dated 2014)

By UniProt entry, the sequences of proteins in these tests, tags left out.
UniProt P97266, whole entry: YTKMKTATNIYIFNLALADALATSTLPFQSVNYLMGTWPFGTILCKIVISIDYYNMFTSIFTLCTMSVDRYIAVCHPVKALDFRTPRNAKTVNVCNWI

Molecular target: μ-receptor (isolated guinea pig ileum, GPI) (Cavia porcellus, UniProt P97266)
Assay: Peripheral opioid activity: inhibition of electrically-induced contractions of isolated guinea pig ileum (GPI)
Protocol: The segment of GPI about 1 cm long was placed into a 10-ml organ bath containing Krebs solution at 34° C. […] Resting tension of the organ was 1 g. The segment of GPI was stimulated by single pulses duration 1 ms with 0.1 Hz at 80 V. The solution with isolated organs was constantly aerated. The contractions were recorded in an isometrical mode by a sensor K 30 (Hugo Sachs Elektronic KG) with paper register Rikadenki-series (Japan).
The substances tested were dissolved in distilled water and added cumulatively to the organ bath at a volume of 5 to 30 mcl. Each subsequent substance was added after the isolated organs were washed 3 or 4 times for 12-15 min. On the basis of the data obtained, dose-effects curves were plotted and the activity of substances was expressed by IC50 or pD2. The pD2 index was equal to a negative decimal logarithm of the substance concentration causing a 50% of the maximal effect.
New dermorphin analogues were tested in the standard model of Guinea pig ileum binding test.
For confirmation of opioid activity, the specific antagonist naloxson was used in concentration of 10^−5M. Each molecule was tested in 5 independent replications and relative activity was calculated as negative logarithm of EC50 (pD2).

## H-Tyr-D-Ala-Phe-Gly-OH [Compound 55]
Concentration reducing contraction amplitude by 50%, 5 replications, read-out: Median EC50
  EC50: 1000 nM
Negative logarithm of EC50
  Value of pD2 (M ± m): 5.81 ± 0.16
